Source: patent US20250268857A1 (priority 2020, published 2025)

Conditions: guinea pig, in vivo

## zinc gluconate
  adverse health effects from inhalation of the mist: no guinea pigs have been found to exhibit any other adverse health effects
